Measurements published in paper PMC3604073, “Chemerin Is an Antimicrobial Agent in Human Epidermis” (PLoS ONE, 2013).

Experiments:
E. coli ATCC 11775 = settings: ATCC 11775, 2 h, pH 7.4
S. aureus ATCC 6538 = settings: ATCC 6538, 2 h, pH 7.4
P. aerugin. ATCC 10145 = settings: ATCC 10145, 2 h, pH 7.4
C. albicans ATCC 24433 = settings: ATCC 24433, 2 h, pH 7.4
S. epiderm. ATCC 12228 = settings: ATCC 12228, 2 h, pH 7.4
S. epiderm. ATCC 14990 = settings: ATCC 14990, 2 h, pH 7.4

## CC(C)C[C@H](NC(=O)[C@H](CCCCN)NC(=O)[C@H](Cc1ccccc1)NC(=O)[C@H](CCC(=O)O)NC(=O)[C@H](CC(C)C)NC(=O)[C@H](CCCNC(=N)N)NC(=O)[C@@H](N)C(C)C)C(=O)N[C@@H](CCC(N)=O)C(=O)N[C@@H](CCC(N)=O)C(=O)N[C@H](C(=O)N[C@@H](CO)C(=O)N[C@@H](CS)C(=O)N[C@@H](CCCNC(=N)N)C(=O)N[C@@H](CCCCN)C(=O)N[C@@H](CCCNC(=N)N)C(=O)N[C@@H](CC(=O)O)C(=O)N[C@@H](Cc1c[nH]c2ccccc12)C(=O)N[C@@H](CCCCN)C(=O)N[C@@H](CCCCN)C(=O)N1CCC[C@H]1C(=O)O)[C@@H](C)O [p4]
E. coli ATCC 11775
  MIC: 3.1 to 6.3 µg/mL
S. aureus ATCC 6538
  MIC: 12.5 µg/mL (≈ 4.91 µM)
P. aerugin. ATCC 10145
  MIC: 6.3 µg/mL (≈ 2.47 µM)
C. albicans ATCC 24433
  MIC: 6.3 µg/mL (≈ 2.47 µM)
S. epiderm. ATCC 12228
  MIC: 12.5 µg/mL (≈ 4.91 µM)
S. epiderm. ATCC 14990
  MIC: 12.5 µg/mL (≈ 4.91 µM)

In brackets after ≈: the same amount, converted by molar mass.
